{"source": "patent US7851629B2", "about": "“Disubstituted phenylpiperidines as modulators of dopamine and serotonin neurotransmission” (NSAB, Filial af Neurosearch Sweden AB, Sverige, priority 2004, dated 2010)", "key": {"[1]": {"tested_on": "amphetamine pretreated rats", "assay": "animal or person", "conditions": "Rattus norvegicus, read-out: ED50 reduction of amphetamine-induced hyper-locomotion"}, "[2]": {"tested_on": "amphetamine pretreated rats", "conditions": "rats pretreated with d-amphetamine 1.5 mg/kg i.p.; test compound s.c.; range covers 95% of fits"}}}
{"compound": "CCCN1CCC(c2cccc(OC(F)(F)F)c2F)CC1", "values": [{"measurement": "ED50", "setting": "[1]", "result": 9, "unit": "µmol/kg"}]}
{"compound": "COc1cccc(C2(O)CCN(C)CC2)c1OC", "values": [{"measurement": "ED50 reduction of amphetamine-induced hyper-locomotion", "setting": "[2]", "result": "inactive"}]}
{"compound": "CCCN1CCC(c2cccc(F)c2F)CC1", "note": "[drawing 20]", "values": [{"measurement": "ED50", "setting": "[1]", "result": 17.1, "unit": "µmol/kg"}]}
{"compound": "CCCN1CCC(c2cccc(Cl)c2Cl)CC1", "note": "[drawing 22]", "values": [{"measurement": "ED50", "setting": "[1]", "result": 11, "unit": "µmol/kg"}]}
